Measurements as given in the NIST ThermoML archive (doi:10.1016/j.jct.2011.04.018).

Assay: activity coefficient (dimensionless); of the first substance listed, at infinite dilution; xn = mol fraction of the nth substance listed
Conditions: 101 kPa, Liquid, Chromatography, x1 = 0

CCCCOCCCC [dibutyl ether] + O=S(=O)([N-]S(=O)(=O)C(F)(F)F)C(F)(F)F.OCCC[n+]1ccccc1
Conditions | activity coefficient
308.15 K | 26.1
318.15 K | 24.8
328.15 K | 23.6
338.15 K | 22.5
348.15 K | 21.6
358.15 K | 20.8
368.15 K | 20
